# Measured values: PubChem BioAssay AID2216 (Broad Institute, 2009)
# This is a selection; strong and weak results do not stand in their true shares. Results filed as inconclusive are left out. The source made the active and inactive calls.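 The calls were made as follows: active = more than half of the replicate wells show a fall in the fluorescence ratio signal beyond about 16% (limit read from the data, passing the limit was not always enough); inconclusive = exactly half of the replicate wells pass the set limit; inactive = fewer than half of replicates pass the limit.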
# System: Ran GTPase (GTP-bound) - importin-beta complex
# Assay: inhibitors of RanGTP-importin-beta interaction, primary screen, biochemical, FRET, CFP-Ran, YFP-importin-beta, homogeneous (AID 2216);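 also: 0% = DMSO wells and 100% = Ran loaded with GDP instead of GTP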
# Conditions: cell-free CFP-Ran/YFP-importin-beta FRET ratio; stronger effect = higher value; concentration not given here
row,SMILES,inhibition
1,O=[N+]([O-])c1cc([N+](=O)[O-])c(Nc2cccnc2)c([N+](=O)[O-])c1,inactive: -4.38%
2,O=[N+]([O-])c1ccc(Nc2ccc(Oc3ccc([N+](=O)[O-])cc3[N+](=O)[O-])cc2)c([N+](=O)[O-])c1,inactive: -1.68%
3,CP(=O)(Nc1ccccc1Br)Oc1ccccc1 (stereo unspecified),inactive: 6.98%
4,COc1ccccc1OP(C)(=O)Nc1ccccc1 (stereo unspecified),inactive: 0.601%
5,Cc1cc(SC(NC=O)C(Cl)(Cl)Cl)ncn1 (stereo unspecified),inactive: 2.99%
6,O=P(Nc1ccccn1)(c1cccc2ccccc12)c1cccc2ccccc12,inactive: -3.4%
7,CCOC(=O)Nc1cccc([As](=O)(O)O)c1,inactive: 0.387%
8,CP(=S)(Nn1cnnc1)Oc1ccccc1 (stereo unspecified),inactive: -1.48%
9,Cc1cc(SC(NC(=O)c2ccccc2)C(Cl)(Cl)Cl)nc(C(C)C)n1 (stereo unspecified),inactive: 6.54%
10,CCCCOc1ccc(C(=O)NCC2(N3CCCCC3)CCCCC2)cc1OC,inactive: -0.0148%
11,CCOC(=O)Nc1ccc([As](=O)(O)O)c(O)c1,inactive: 7.2%
12,CCC(C)N(CC(C)C)C(=S)SC(NC(C)=O)C(Cl)(Cl)Cl (stereo unspecified),inactive: 8.95%
13,O=[N+]([O-])c1cc([N+](=O)[O-])c(O)c([N+](=O)[O-])c1.c1ccc(Oc2ccncc2)cc1,inactive: -0.441%
14,CCOC(=O)c1ccc(NP(C)(=O)Oc2ccc(OC)cc2)cc1 (stereo unspecified),inactive: 1.44%
15,CCOC(=O)c1ccc(NC(=O)C(C)(CCl)SC)cc1 (stereo unspecified),inactive: 1.06%
16,CCOP(C)(=S)SCC(=O)NC(C)C(=O)O (stereo unspecified),inactive: 3.1%
17,O=C(OC1CN2CCC1CC2)c1cccc([N+](=O)[O-])c1 (stereo unspecified),inactive: 2.66%
18,O=C(Nc1ccncc1[N+](=O)[O-])c1ccc([N+](=O)[O-])cc1[N+](=O)[O-],inactive: 0.136%
19,Cc1cc(C)cc(OP(C)(=O)Nc2ccc(SC(F)(F)F)cc2)c1 (stereo unspecified),inactive: -0.685%
20,CP(=O)(NC(=O)Nc1ccccc1)Oc1ccccc1 (stereo unspecified),inactive: 1.36%
21,O=C(COc1ccccc1)OC1CN2CCC1CC2 (stereo unspecified),inactive: -3.31%
22,CCc1ccc(OP(C)(=O)N2CCN(c3ccc([N+](=O)[O-])cc3)CC2)cc1 (stereo unspecified),inactive: -2.03%
23,CP(=O)(Oc1ccccc1)OC(c1ccccc1)C(F)(F)F (stereo unspecified),inactive: -2.69%
24,COP1(=S)c2c(C)nn(CCC#N)c2N=C(c2ccc(F)cc2)N1C (stereo unspecified),inactive: 2.03%
25,CP(=O)(Nc1ccc(SC(F)(F)F)cc1)Oc1ccc(Cl)cc1 (stereo unspecified),inactive: 1.19%
26,Cc1cccc(C)c1OP(C)(=O)Nc1ccc(SC(F)(F)F)cc1 (stereo unspecified),inactive: -1.89%
